{
  "source": "patent US20070265194A1",
  "about": "“Agents for the treatment of viral infections” (priority 2000, published 2007)",
  "origin": "cited, not measured here",
  "tested_on": "mouse thymus cell lines",
  "details": "normal cell growth and metabolism; cited from earlier work",
  "data": [
    {"substance": "4-hydroxy-5-iodo-3-nitrophenylacetyl-L-leucinyl-L-leucinyl-L-leucine vinyl sulfone", "values": [
      {"measurement": "concentration tolerated in continuous presence", "result": 10, "unit": "µM"}
    ]}
  ]
}
